Permeability data for macrocyclic peptides

PAMPA is the parallel artificial membrane permeability assay, which has no cells and reads passive diffusion.
Values are log10 P with P in cm/s, so -5 is more permeable than -7.

CCCC[C@@H]1NC(=O)[C@H](CC(C)C)NC(=O)CN(CC2CCOCC2)C(=O)[C@@H](Cc2ccccc2)NC(=O)CN(Cc2ccc3c(c2)OCO3)C(=O)[C@@H]2CCCN2C1=O has PAMPA -6.17 (log10 cm/s).
CCCC[C@@H]1NC(=O)[C@H](CC(C)C)NC(=O)CN(CC2CCCCC2)C(=O)[C@H](Cc2ccccc2)NC(=O)CN(CC)C(=O)[C@@H]2CCCN2C1=O has PAMPA -5.00 (log10 cm/s).
CCCC[C@@H]1NC(=O)[C@H](CC(C)C)N(C)C(=O)CN(CC2CCCCC2)C(=O)[C@H](Cc2ccccc2)NC(=O)CN(Cc2ccc3c(c2)OCO3)C(=O)[C@H]2CCCN2C1=O has PAMPA -7.54 (log10 cm/s).
CCCC[C@@H]1NC(=O)[C@H](CC(C)C)N(C)C(=O)CN(CC2CCOCC2)C(=O)[C@@H](C)NC(=O)CN(Cc2ccc3c(c2)OCO3)C(=O)[C@@H]2CCCN2C1=O has PAMPA -6.54 (log10 cm/s).
CCCCCN1CC(=O)N(C)[C@@H](CC(C)C)C(=O)N[C@@H](CCCC)C(=O)N2CCC[C@@H]2C(=O)N(CC)CC(=O)N[C@@H](C)C1=O has PAMPA -5.40 (log10 cm/s).
CCCC[C@@H]1NC(=O)[C@@H](CC(C)C)N(C)C(=O)CN(CC2CCCCC2)C(=O)[C@H](C)NC(=O)CN(Cc2ccc3c(c2)OCO3)C(=O)[C@@H]2CCCN2C1=O has PAMPA -4.99 (log10 cm/s).
CCCC[C@@H]1NC(=O)[C@@H](CC(C)C)N(C)C(=O)CN(CC2CCCCC2)C(=O)[C@H](Cc2ccccc2)NC(=O)CN(Cc2ccc3c(c2)OCO3)C(=O)[C@@H]2CCCN2C1=O has PAMPA -6.37 (log10 cm/s).
CCCC[C@@H]1NC(=O)[C@H](CC(C)C)N(C)C(=O)CN(CC2CCCCC2)C(=O)[C@H](C)NC(=O)CN(CCCOC(C)C)C(=O)[C@H]2CCCN2C1=O has PAMPA -4.81 (log10 cm/s).
CCCC[C@@H]1NC(=O)[C@@H](CC(C)C)NC(=O)CN(CC2CCOCC2)C(=O)[C@@H](C)NC(=O)CN(Cc2ccc3c(c2)OCO3)C(=O)[C@@H]2CCCN2C1=O has PAMPA -6.64 (log10 cm/s).
CCCC[C@@H]1NC(=O)[C@H](CC(C)C)N(C)C(=O)CN(CC2CCOCC2)C(=O)[C@H](C)NC(=O)CN(CC)C(=O)[C@H]2CCCN2C1=O has PAMPA -7.27 (log10 cm/s).
CCCC[C@@H]1NC(=O)[C@@H](CC(C)C)NC(=O)CN(CC2CCOCC2)C(=O)[C@@H](Cc2ccccc2)NC(=O)CN(CCCOC(C)C)C(=O)[C@H]2CCCN2C1=O has PAMPA -5.58 (log10 cm/s).
CCCC[C@@H]1NC(=O)[C@H](CC(C)C)N(C)C(=O)CN(CC2CCOCC2)C(=O)[C@@H](Cc2ccccc2)NC(=O)CN(Cc2ccc3c(c2)OCO3)C(=O)[C@@H]2CCCN2C1=O has PAMPA -6.17 (log10 cm/s).

2 of these entries, quoted again:

compound	PAMPA (log10 cm/s)
CCCC[C@@H]1NC(=O)[C@@H](CC(C)C)N(C)C(=O)CN(CC2CCCCC2)C(=O)[C@H](C)NC(=O)CN(Cc2ccc3c(c2)OCO3)C(=O)[C@@H]2CCCN2C1=O	-4.99
CCCC[C@@H]1NC(=O)[C@H](CC(C)C)NC(=O)CN(CC2CCCCC2)C(=O)[C@H](Cc2ccccc2)NC(=O)CN(CC)C(=O)[C@@H]2CCCN2C1=O	-5.00

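The data file gives no further conditions (lipid, pH, time, direction or concentration), and values from different papers need not be comparable. The list need not hold all peptides of the study. Peptides that the database sets to -10, its floor, are left out.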

Source: CycPeptMPDB (Li et al. 2023), which took these values from Furukawa et al. 2016, doi:10.1021/acs.jmedchem.6b01246.